Experimental data published in patent publication US9777012B2, “Substituted furo[2,3-d]pyrimidines as multi-targeted receptor tyrosine kinase inhibitors and microtubule targeting antitumor agents” (Duquesne University of the Holy Spirit, priority 2014, dated 2017).

Tested on: colchicine site on tubulin
Experiment: Inhibition of [3H]colchicine binding to tubulin
Details: 5 μM compound

**Q.** COc1ccc(/C=C\c2cc(OC)c(OC)c(OC)c2)cc1O [CA-4, combretastatin A-4] was tested. Which “Inhibition of colchicine binding % inhibition ± SD” value did it give?
**A.** 99 ± 0.2%
